Test results reported in patent publication US9694053B2, “Dual GLP-1/glucagon receptor agonists” (Sanofi, priority 2013, dated 2017).

Experiments:
[1] = Chemical stability in solution, 7 days storage, HPLC-UV (% remaining peptide); format: physicochemical; settings: 7 days in solution, expressed as % remaining peptide
Procedure: After that time course, the sample was centrifuged for 20 min at 4000 rpm and the supernatant was analysed with HPLC-UV.
For determination of the amount of the remaining peptide, the peak areas of the target compound at t0 and t7 were compared, resulting in “% remaining peptide”, following the equation % remaining peptide=[(peak area peptide t7)×100]/peak area peptide t0.
The chemical stability is expressed as “% remaining peptide”.

physchem = settings: buffer system

| Compound | Stability pH4.5 ([1]; pH 4.5, 25° C.) | Stability pH7.4 ([1]; pH 7.4, 25° C.) | solubility at 2 h (physchem; pH 4.5) | solubility at 2 h (physchem; pH 7.4) | Stability pH4.5 ([1]; pH 4.5, 40° C.) | Stability pH7.4 ([1]; pH 7.4, 40° C.) |
| --- | --- | --- | --- | --- | --- | --- |
| CC[C@H](C)[C@H](NC(=O)[C@H](CC(C)C)NC(=O)[C@H](Cc1c[nH]c2ccccc12)NC(=O)[C@H](CCC(=O)O)NC(=O)[C@@H](NC(=O)[C@H](Cc1ccccc1)NC(=O)[C@H](CC(=O)O)NC(=O)[C@H](CCCCN)NC(=O)[C@H](C)NC(=O)[C@H](CC(C)C)NC(=O)[C@H](CCC(N)=O)NC(=O)[C@H](CCC(=O)O)NC(=O)[C@H](CC(=O)O)NC(=O)[C@H](CC(C)C)NC(=O)[C@H](CC(C)C)NC(=O)[C@H](CCCCN)NC(=O)[C@H](CO)NC(=O)[C@H](CC(C)C)NC(=O)[C@H](CC(=O)O)NC(=O)[C@H](CO)NC(=O)[C@@H](NC(=O)[C@H](Cc1ccccc1)NC(=O)[C@@H](NC(=O)CNC(=O)[C@H](Cc1c[nH]cn1)NC(=O)[C@@H](CO)NC(=O)[C@@H](N)Cc1c[nH]cn1)[C@@H](C)O)[C@@H](C)O)[C@@H](C)CC)C(=O)N[C@@H](C)C(=O)NCC(=O)NCC(=O)N1CCC[C@H]1C(=O)N[C@@H](CO)C(=O)N[C@@H](CO)C(=O)NCC(=O)N[C@@H](C)C(=O)N1CCC[C@H]1C(=O)N1CCC[C@H]1C(=O)N1CCC[C@H]1C(=O)N[C@@H](CO)C(N)=O [SEQ ID NO 8, H-dSer-HGTFTSDLSKLLDEQLAKDFIEWLIAGGPSSGAPPPS-NH2] | 100 | 77.5 | 934 µg/mL (≈ 227 µM) | > 1000 µg/mL |  |  |
| CC[C@H](C)[C@H](NC(=O)[C@H](CC(C)C)NC(=O)[C@H](Cc1c[nH]c2ccccc12)NC(=O)[C@H](CCC(=O)O)NC(=O)[C@@H](NC(=O)[C@H](Cc1ccccc1)NC(=O)[C@H](CC(=O)O)NC(=O)[C@H](CCCCN)NC(=O)[C@H](C)NC(=O)[C@H](CCCNC(=N)N)NC(=O)[C@H](CCC(N)=O)NC(=O)[C@H](CCC(=O)O)NC(=O)[C@H](CC(=O)O)NC(=O)[C@H](CC(C)C)NC(=O)[C@H](CC(C)C)NC(=O)[C@H](CCCCN)NC(=O)[C@H](CO)NC(=O)[C@H](CC(C)C)NC(=O)[C@H](CC(=O)O)NC(=O)[C@H](CO)NC(=O)[C@@H](NC(=O)[C@H](Cc1ccccc1)NC(=O)[C@@H](NC(=O)CNC(=O)[C@H](CCC(N)=O)NC(=O)[C@@H](CO)NC(=O)[C@@H](N)Cc1c[nH]cn1)[C@@H](C)O)[C@@H](C)O)[C@@H](C)CC)C(=O)N[C@@H](C)C(=O)NCC(=O)NCC(=O)N1CCC[C@H]1C(=O)N[C@@H](CO)C(=O)N[C@@H](CO)C(=O)NCC(=O)N[C@@H](C)C(=O)N1CCC[C@H]1C(=O)N1CCC[C@H]1C(=O)N1CCC[C@H]1C(=O)N[C@@H](CO)C(N)=O [compound 5] |  |  | > 1000 µg/mL | > 1000 µg/mL | 92.6 | 96.5 |

≈ marks a conversion by molar mass, not a printed value.
